Assay results reported in ChEMBL document CHEMBL1129336, “Ryanodine action at calcium release channels. 2. relation to substituents of the cyclohexane ring” (J Med Chem, 1996).

Biological target: T1, Ryanodine receptor 2 (Canis lupus familiaris) (UniProt Q8WN72)
T1 sequence (whole entry): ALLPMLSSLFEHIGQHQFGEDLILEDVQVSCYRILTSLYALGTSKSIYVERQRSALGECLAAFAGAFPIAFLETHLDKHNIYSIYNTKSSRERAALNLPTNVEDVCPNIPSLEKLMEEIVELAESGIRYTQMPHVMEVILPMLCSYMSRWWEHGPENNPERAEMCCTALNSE
Experiment: Displacement of [3H]ryanodine binding to ryanodine receptor(ryr) in canine left ventricular membranes
Type: cell membranes
Outline: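 Radioligand displacement assays of [3H]ryanodine binding at the ryanodine receptor, one each on rabbit skeletal muscle, mouse brain and canine ventricle preparations. Values are means of three to five experiments, each run in duplicate; standard error is reported as percent of the mean.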

Question: How did the Relative activity turn out when `CC1CCC2(O)C3(C)CC4(O)OC2(C1O)C1(O)C3(O)C(OC(=O)c2ccc[nH]2)C(O)(C(C)C)C41C` (stereo unspecified) was run?
Answer: 78
